From patent publication US20070111328A1, “Scintillation proximity assay for the identification of P-glycoprotein modulators” (priority 2005, published 2007)

Chains of the proteins cited; added tags and fusions are not shown.
UniProt P08183, whole entry: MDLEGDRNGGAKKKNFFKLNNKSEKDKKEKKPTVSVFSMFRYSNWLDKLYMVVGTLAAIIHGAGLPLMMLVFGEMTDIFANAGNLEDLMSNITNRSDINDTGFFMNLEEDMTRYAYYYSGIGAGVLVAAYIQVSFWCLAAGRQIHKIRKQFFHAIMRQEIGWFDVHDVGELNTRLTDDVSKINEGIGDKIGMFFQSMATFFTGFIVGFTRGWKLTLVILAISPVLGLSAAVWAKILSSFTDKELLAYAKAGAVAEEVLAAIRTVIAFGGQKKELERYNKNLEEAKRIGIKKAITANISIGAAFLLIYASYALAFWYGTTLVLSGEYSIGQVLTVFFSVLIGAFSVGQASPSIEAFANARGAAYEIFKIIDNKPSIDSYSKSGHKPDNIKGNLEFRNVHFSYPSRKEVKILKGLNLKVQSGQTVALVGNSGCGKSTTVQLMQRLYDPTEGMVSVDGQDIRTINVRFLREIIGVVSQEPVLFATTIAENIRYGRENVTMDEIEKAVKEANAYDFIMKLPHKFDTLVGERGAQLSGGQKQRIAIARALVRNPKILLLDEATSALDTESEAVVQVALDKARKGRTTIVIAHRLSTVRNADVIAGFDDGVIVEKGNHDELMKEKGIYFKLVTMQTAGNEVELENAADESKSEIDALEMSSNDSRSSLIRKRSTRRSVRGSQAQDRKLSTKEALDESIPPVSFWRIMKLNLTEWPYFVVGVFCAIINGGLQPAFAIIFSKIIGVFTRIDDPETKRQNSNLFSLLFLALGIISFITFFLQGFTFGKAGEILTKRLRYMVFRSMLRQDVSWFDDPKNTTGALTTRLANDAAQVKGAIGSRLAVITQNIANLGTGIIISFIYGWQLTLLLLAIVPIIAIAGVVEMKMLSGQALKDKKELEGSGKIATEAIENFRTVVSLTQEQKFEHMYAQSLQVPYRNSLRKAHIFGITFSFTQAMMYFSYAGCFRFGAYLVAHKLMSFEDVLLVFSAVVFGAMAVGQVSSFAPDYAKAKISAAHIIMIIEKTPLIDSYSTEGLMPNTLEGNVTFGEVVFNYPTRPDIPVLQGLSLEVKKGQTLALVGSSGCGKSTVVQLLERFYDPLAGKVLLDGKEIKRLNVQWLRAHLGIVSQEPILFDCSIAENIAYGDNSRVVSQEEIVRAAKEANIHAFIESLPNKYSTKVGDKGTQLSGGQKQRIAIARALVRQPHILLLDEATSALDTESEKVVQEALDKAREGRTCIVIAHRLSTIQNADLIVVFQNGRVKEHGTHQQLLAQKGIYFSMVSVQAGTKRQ

Biological target: P-glycoprotein (P-gp) (Homo sapiens, UniProt P08183)
Test: Scintillation proximity assay (SPA): competition with [3H]vinblastine binding to P-gp in KB-V1 cell membranes
Settings: test compound 10 μM final concentration; FIG. 8; mean of triplicates

For Ivermectin, the “effect of test compound on P-gp specific binding signal” value was “strongly inhibited”.
